# Reference: US8008316B2, “Azonafide derived tumor and cancer targeting compounds” (The United States of America as represented by the …, priority 2006, dated 2011)
# Tested on: lung cancer cell line (Calu-3) overexpressing Her2/neu
# Experiment: MTT cell toxicity assay on Calu-3 cells
# Format: cell-based
# Conditions: Calu-3, MTT
substance,measurement,setting,value
Trastuzumab: antibody against Her2/Nue [reference compound],"Cell Number, % From Control",concentration 50 nM,47%
same,"Cell Number, % From Control",concentration 100 nM,54%
